Counter-ions that a name gives are not always drawn. Only a part is listed here, and it is no random draw.
Test system: primary human hepatic stellate cells (donor 1)
Assay: ACTA2 mRNA fold change vs DMSO (normalised to PSMB2); higher = more ACTA2 expression
Conditions: 33.3333 µM; 48 h
Procedure: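 Secondary qRT-PCR screen in primary human HSCs (donor 1), 384-well plates, with compounds dispensed in quadruplicate and incubated for 48 h. Cells-to-CT lysates were used for multiplexed TaqMan qPCR of ACTA2 or COL1A1 with PSMB2 as reference. Fold changes versus DMSO come from a linear model (Ct_gene ~ Ct_PSMB2 + plate + chemical). A hit is defined as COL1A1 and ACTA2 FC <0.5 (FDR <0.05) with PSMB2 between 0.2 and 2.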

| SMILES | ACTA2 mRNA fold change |
| --- | --- |
| N/C(=N/CCc1ccc(I)cc1)SCCCc1cnc[nH]1 [Iodophenpropit dihydrobromide] | 0.0708 |

— the supplement of paper PMC9135407
